# Assay results taken from patent publication US11053218B2, “3-(1-oxoisoindolin-2-yl)piperidine-2,6-dione derivatives and uses thereof” (Novartis AG, priority 2017, dated 2021).
# System: primary human regulatory T cells
# Test: IL-2 production of expanded primary human Treg cells
# Type: cell-based
# Conditions: purified primary human Treg cells, five donors, FIG. 2
smiles,measurement,value
"O=C1CCC(N2Cc3cc(C4CCN(Cc5ccccc5)CC4)ccc3C2=O)C(=O)N1 (stereo not shown) [Compound I-57, 3-(5-(1-benzylpiperidin-4-yl)-1-oxoisoindolin-2-yl)piperidine-2,6-dione]",Production of IL2 in Treg cells as compared to the control,enhanced
